Where a chain is given by its changes, count along the chain named. Numbers in names are those of the source.
Legend:
[1] = molecular target: T1, recombinant human Fc gamma RIIIa (CD16a) 158F (human, UniProt P08637 17-208); test: SPR (Carterra LSA), antibody captured via anti-CH1, monovalent
T1 construct: also called FcRγIIIa

[2] = molecular target: T2, recombinant human Fc gamma RIIIb (CD16b) (human, UniProt O75015 17-200); test: as above
T2 construct: also called FcRγIIIb

[3] = molecular target: T3, recombinant human Fc gamma RIIIa (CD16a) 158V (human, UniProt P08637 17-208); test: as above
T3 construct: also called FcRγIIIa; FcgRIIIa 158 V

[4] = molecular target: T4, recombinant human Fc gamma RIIb/c (CD32b/c) (human, UniProt P31994 46-217); test: BLI (Octet), FcγR on sensor, bivalent format
T4 construct: also called FcRγIIb; FcgRIIb/c
T4 sequence (looked up): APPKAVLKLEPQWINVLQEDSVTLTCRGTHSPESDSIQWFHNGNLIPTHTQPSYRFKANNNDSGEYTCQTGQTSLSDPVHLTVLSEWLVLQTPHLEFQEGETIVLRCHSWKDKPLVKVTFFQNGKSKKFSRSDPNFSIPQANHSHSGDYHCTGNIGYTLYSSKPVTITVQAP

[5] = molecular target: T5, recombinant human Fc gamma RIIa (CD32a) 131R (human, UniProt P12318 36-218); test: BLI (Octet), FcγR on sensor, bivalent format
T5 construct: also called Fc gamma RIIa (CD32) (Arg167)
T5 sequence (looked up): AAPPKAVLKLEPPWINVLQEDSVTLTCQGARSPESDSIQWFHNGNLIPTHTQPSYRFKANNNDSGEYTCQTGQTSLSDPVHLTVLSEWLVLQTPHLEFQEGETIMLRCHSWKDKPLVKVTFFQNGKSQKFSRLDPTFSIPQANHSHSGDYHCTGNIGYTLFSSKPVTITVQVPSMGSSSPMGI

[6] = molecular target: T6, recombinant human Fc gamma RIIa (CD32a) 131H (human, UniProt P12318 36-218); test: BLI (Octet), FcγR on sensor, bivalent format
T6 construct: also called FcRγIIa
T6 sequence (looked up): T5 sequence (looked up) with R132H

[7] = molecular target: T1, recombinant human Fc gamma RIIIa …; test: BLI (Octet), FcγR on sensor, bivalent format
[8] = molecular target: T2, recombinant human Fc gamma RIIIb (CD16b); test: BLI (Octet), FcγR on sensor, bivalent format
[9] = molecular target: T7, recombinant human Fc gamma RI (CD64) (human, UniProt P12314 16-288); test: BLI (Octet), FcγR on sensor, bivalent format
T7 construct: also called FcRγI; FcgRI

[10] = molecular target: T3, recombinant human Fc gamma RIIIa …; test: BLI (Octet), FcγR on sensor, bivalent format
[11] = molecular target: T4, recombinant human Fc gamma RIIb/c …; test: BLI (Octet), FcγR on sensor, bivalent format; remark: listed apart in the source
[12] = molecular target: T5, recombinant human Fc gamma RIIa (CD32a) …; test: BLI (Octet), FcγR on sensor, bivalent format; remark: listed apart in the source
[13] = molecular target: T6, recombinant human Fc gamma RIIa (CD32a) …; test: BLI (Octet), FcγR on sensor, bivalent format; remark: listed apart in the source
[14] = molecular target: T1, recombinant human Fc gamma RIIIa …; test: BLI (Octet), FcγR on sensor, bivalent format; remark: listed apart in the source
[15] = molecular target: T2, recombinant human Fc gamma RIIIb (CD16b); test: BLI (Octet), FcγR on sensor, bivalent format; remark: listed apart in the source
[16] = molecular target: T7, recombinant human Fc gamma RI (CD64); test: BLI (Octet), FcγR on sensor, bivalent format; remark: listed apart in the source
[17] = molecular target: T3, recombinant human Fc gamma RIIIa …; test: BLI (Octet), FcγR on sensor, bivalent format; remark: listed apart in the source
[18] = molecular target: T8, cynomolgus monkey Fc gamma receptor CD16 (cynomolgus monkey, UniProt Q8SPW2 17-208); test: BLI (Octet), cynomolgus FcγR on sensor
T8 construct: also called CD16 (cynomolgus)

[19] = molecular target: T9, cynomolgus monkey Fc gamma receptor CD32a (cynomolgus monkey); test: BLI (Octet), cynomolgus FcγR on sensor
T9 construct: also called CD32a (cynomolgus)

[20] = molecular target: T10, cynomolgus monkey Fc gamma receptor CD32b (cynomolgus monkey); test: BLI (Octet), cynomolgus FcγR on sensor
T10 construct: also called CD32b (cynomolgus)

[21] = molecular target: T4, recombinant human Fc gamma RIIb/c …; test: SPR (Carterra LSA), antibody captured via anti-CH1, monovalent
[22] = molecular target: T5, recombinant human Fc gamma RIIa (CD32a) …; test: as above
[23] = molecular target: T7, recombinant human Fc gamma RI (CD64); test: as above
[24] = molecular target: T8, cynomolgus monkey Fc gamma receptor CD16; test: SPR (Carterra), monovalent format
[25] = molecular target: T9, cynomolgus monkey Fc gamma receptor …; test: SPR (Carterra), monovalent format
[26] = molecular target: T10, cynomolgus monkey Fc gamma receptor …; test: SPR (Carterra), monovalent format

B1: HB2198 (bispecific antibody, human IgG1, kappa)
heavy 1: QVQLVQSGGGVVQPGRSLRLSCAASGVSLPDYGVSWVRKAPGKGLEWVAVIWGSETTYYNSALKSRFTISRDNSKNTLYLQMSSLRAEDTAVYYCAKHYYYGGSFAMDYWGQGTLVTVSSASTKGPSVFPLAPSSKSTSGGTAALGCLVKDYFPEPVTVSWNSGALTSGVHTFPAVLQSSGLYSLESVVTVPSSSLGTQTYICNVNHKPSNTKVDKKVEPKSCTDWSPYADQSIKVRISLKSALGDKAYEWNDNEMYLFRSSVAYAMRQYFLKVKNQMILFGEEDVRVANLKPRISFNFFVTAPKNVSDIIPRTEVEKAIRMSRSRINDAFRLNDNSLEFLGIQPTLGPPNQPPVSTSTSPTRSMAPGAVHLPQPVSTRDKTHTCPPCPAPELLGGPDVFLFPPKPKDTLMISRTPEVTCVVVDVSHEDPEVKFNWYVDGVEVHNAKTKPREEQYNSTYRVVSVLTVLHQDWLNGKEYKCKVSNKALPAPEEKTISKAKGQPREPQVCTLPPSRDELTKNQVSLSCAVKGFYPSDIAVEWESNGQPENNYKTTPPVLDSDGSFFLVSKLTVDKSRWQQGNVFSCSVMHEALHNRFTQKSLSLSPG
heavy 2: QIVLSQSPAILSASPGEKVTMTCRASSSVSYIHWFQKKPGSSPKPWIYATSNLASGVPVRFSGSGSGTSYSLTISRVEAEDAATYYCQQWTSNPPTFGGGTKVEIKSSASTKGPSVFPLAPSSKSTSGGTAALGCLVKDYFPEPVTVSWNSGALTSGVHTFPAVLQSSGLYSLKSVVTVPSSSLGTQTYICNVNHKPSNTKVDKKVEPKSCDKTHTCPPCPAPELLGGPDVFLFPPKPKDTLMISRTPEVTCVVVDVSHEDPEVKFNWYVDGVEVHNAKTKPREEQYNSTYRVVSVLTVLHQDWLNGKEYKCKVSNKALPAPEEKTISKAKGQPREPQVYTLPPCRDELTKNQVSLWCLVKGFYPSDIAVEWESNGQPENNYKTTPPVLDSDGSFFLYSKLTVDKSRWQQGNVFSCSVMHEALHNHYTQKSLSLSPG
light 1: DIQMTQSPSSLSASVGDRVTITCRASQDISKYLNWYQEKPGKAIKLLIYHTSRLHSGVPSRFSGSGSGTDFTLTISSLQPEDFATYYCQQGATLPYTFGPGTKLEIKRTVAAPSVFIFPPSDEQLKSGTASVKCLLNNFYPREAKVQWKVDNALQSGNSQESVTEQDSKDSTYSLSSTLTLSKADYEKHKVYACEVTHQGLSSPVTKSFNRGEC
light 2: QVQLQQPGAELVKPGASVKMSCKASGYTFTSYNMHWVKETPGRGLEWIGAIYPGNGDTSYNQKFKGKATLTADKSSSTAYMQLSSLTSEDSAVYYCARSTYYGGDWYFNVWGAGTLVTVSSASVAAPSVFIFPPSDEQLKSGTASVECLLNNFYPREAKVQWKVDNALQSGNSQESVTEQDSKDSTYSLSSTLTLSKADYEKHKVYACEVTHQGLSSPVTKSFNRGEC
notes: also called Protein ID 21-98; HB2198 (S239D/1332E)
**Q.** How did the Fold [1] turn out when B1 was run?
**A.** 96.9 fold

**Q.** And the Fold [2]?
**A.** 45.5 fold

**Q.** And the Fold [3]?
**A.** 73.7 fold

**Q.** And the “Fold (KD of rituximab / KD)” value [4]?
**A.** 3050 fold

**Q.** What about the “Fold (KD of rituximab / KD)” value [5] of the same binder?
**A.** > 1160 fold

**Q.** And the “Fold (KD of rituximab / KD)” value [6]?
**A.** > 870 fold

**Q.** And the “Fold (KD of rituximab / KD)” value [7]?
**A.** > 765 fold

**Q.** What about the “Fold (KD of rituximab / KD)” value [8] of the same binder?
**A.** > 2040 fold

**Q.** And the “Fold (KD of rituximab / KD)” value [9]?
**A.** > 565 fold

**Q.** And the “Fold (KD of rituximab / KD)” value [10]?
**A.** > 298 fold

**Q.** What about the “fold increase of binding affinity compared to tafasitamab” value (“fold increase of binding affinity” for short) [11] of the same binder?
**A.** 106 fold

**Q.** And the “fold increase of binding affinity” value [12]?
**A.** > 100 fold

**Q.** And the “fold increase of binding affinity” value [13]?
**A.** > 115 fold

**Q.** And the “fold increase of binding affinity” value [14]?
**A.** > 60 fold

**Q.** What about the “fold increase of binding affinity” value [15] of the same binder?
**A.** > 88 fold

**Q.** What about the “fold increase of binding affinity” value [16] of the same binder?
**A.** > 278 fold

**Q.** What about the “fold increase of binding affinity” value [17] of the same binder?
**A.** > 44 fold

**Q.** And the “Fold (KD of rituximab / KD)” value [18]?
**A.** 214 fold

**Q.** And the “Fold (KD of rituximab / KD)” value [19]?
**A.** 1500 fold

**Q.** What about the “Fold (KD of rituximab / KD)” value [20] of the same binder?
**A.** 1060 fold

**Q.** What about the Fold [21] of the same binder?
**A.** 31.4 fold

**Q.** And the Fold [22]?
**A.** 5 fold

**Q.** What about the Fold [23] of the same binder?
**A.** > 2.7 fold

**Q.** What about the “Fold (KD of MabThera / KD)” value [24] of the same binder?
**A.** 73.8 fold

**Q.** And the “Fold (KD of MabThera / KD)” value [25]?
**A.** 10.3 fold

**Q.** What about the “Fold (KD of MabThera / KD)” value [26] of the same binder?
**A.** 6.7 fold

B2: HB2174 (bispecific antibody, human IgG1, kappa)
heavy 1: B1 heavy 1 with D398S, E491I
heavy 2: not shown
light 1: B1 light 1
light 2: B1 light 2
notes: also called Protein ID 21-74; HB2174 (wild-type)
**Q.** How did the Fold [1] turn out when B2 was run?
**A.** 0.7 fold

**Q.** What about the Fold [2] of the same binder?
**A.** 0.5 fold

**Q.** What about the Fold [3] of the same binder?
**A.** 0.6 fold

**Q.** What about the Fold [21] of the same binder?
**A.** 2 fold

**Q.** What about the Fold [22] of the same binder?
**A.** 0.7 fold

**Q.** What about the Fold [23] of the same binder?
**A.** 0.5 fold

— patent publication US20250084169A1 (published 2025)
